By UniProt entry, the sequences of proteins in these tests, tags left out. Residues count along the entry.
UniProt P27958, 1027-1657: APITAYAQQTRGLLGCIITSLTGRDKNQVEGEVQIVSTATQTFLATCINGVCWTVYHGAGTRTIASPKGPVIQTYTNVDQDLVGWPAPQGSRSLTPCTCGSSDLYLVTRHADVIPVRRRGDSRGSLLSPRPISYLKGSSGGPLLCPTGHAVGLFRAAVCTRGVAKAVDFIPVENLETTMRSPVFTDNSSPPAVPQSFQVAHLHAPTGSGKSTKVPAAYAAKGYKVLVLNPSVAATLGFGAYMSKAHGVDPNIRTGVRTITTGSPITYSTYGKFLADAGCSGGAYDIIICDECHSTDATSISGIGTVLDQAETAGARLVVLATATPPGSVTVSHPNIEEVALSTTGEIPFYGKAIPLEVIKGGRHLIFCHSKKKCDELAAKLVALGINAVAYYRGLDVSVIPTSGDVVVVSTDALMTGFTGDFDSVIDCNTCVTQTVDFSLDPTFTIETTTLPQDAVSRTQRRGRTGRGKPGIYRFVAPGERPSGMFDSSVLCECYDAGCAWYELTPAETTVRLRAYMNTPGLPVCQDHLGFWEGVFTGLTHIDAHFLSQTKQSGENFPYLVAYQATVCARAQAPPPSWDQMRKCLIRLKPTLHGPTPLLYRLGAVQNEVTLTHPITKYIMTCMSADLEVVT
UniProt P27958, 1658-1711: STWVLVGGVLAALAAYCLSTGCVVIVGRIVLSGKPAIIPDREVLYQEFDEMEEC

What follows are compounds tested against Recombinant heterodimeric HCV NS3/NS4A protease (strain 1a) (Hepatitis C virus genotype 1a, UniProt P27958) (assay: Spectrophotometric assay for HCV serine protease inhibitory activity (chromogenic ester substrates)). Conditions: Table 3, sulfone compounds; HCV serine protease; read-out: Ki* range.
Type: biochemical
`CC(C)CCS(=O)(=O)CC1(NC(=O)N[C@H](C(=O)N2C[C@H](OCc3ccccc3)C[C@H]2C(=O)NC(CC2CCC2)C(=O)C(N)=O)C2CCCCC2)CCCCC1` (stereo partly shown) [Compound 310] was tested, and the Ki was less than 75 nM.
With `CC(C)(C)[C@H](NC(=O)NC1(C2CCCS2(=O)=O)CCCCC1)C(=O)N1C[C@H]2[C@@H]([C@H]1C(=O)NC(CCC(F)(F)F)C(=O)C(N)=O)C2(C)C` (stereo partly shown) [Compound 311] the Ki was less than 75 nM.
`C#CCCC(NC(=O)[C@@H]1[C@@H]2[C@H](CN1C(=O)[C@@H](NC(=O)NC1(C3CCCS3(=O)=O)CCCCC1)C(C)(C)C)C2(C)C)C(=O)C(=O)NCC=C` (stereo partly shown) [Compound 312] gave a Ki of less than 75 nM.
Compound `CC1(C)[C@@H]2[C@@H](C(=O)NC(CC3CCC3)C(=O)C(N)=O)N(C(=O)[C@@H](NC(=O)NC3(CS(=O)(=O)C(C)(C)C)CCCCC3)C3CCCCC3)C[C@@H]21` (stereo partly shown) [Compound 313] has a Ki of less than 75 nM.
Work on `CC1(C)[C@@H]2[C@@H](C(=O)NC(CC3CCC3)C(=O)C(N)=O)N(C(=O)[C@@H](NC(=O)NC3(CS(=O)(=O)C(C)(C)C)CCCCC3)C3Cc4ccccc4C3)C[C@@H]21` (stereo partly shown) [Compound 314] yielded a Ki of less than 75 nM.
Compound `C=CCNC(=O)C(=O)C(CC1CCC1)NC(=O)[C@@H]1[C@@H]2[C@H](CN1C(=O)[C@@H](NC(=O)NC1(CS(=O)(=O)C(C)(C)C)CCCCC1)C1CCCCC1)C2(C)C` (stereo partly shown) [Compound 315] has a Ki of less than 75 nM.
Work on `C=CCNC(=O)C(=O)C(CCC(F)(F)F)NC(=O)[C@@H]1[C@@H]2[C@H](CN1C(=O)[C@@H](NC(=O)NC1(C3CCCS3(=O)=O)CCCCC1)C(C)(C)C)C2(C)C` (stereo partly shown) [Compound 316] yielded a Ki of less than 75 nM.
Compound `C=CCNC(=O)C(=O)C(CCC)NC(=O)[C@@H]1[C@@H]2[C@H](CN1C(=O)[C@@H](NC(=O)NC1(C3CCCS3(=O)=O)CCCCC1)C(C)(C)C)C2(C)C` (stereo partly shown) [Compound 317] has a Ki of less than 75 nM.
Work on `C=CCNC(=O)C(=O)C(CC1CCC1)NC(=O)[C@@H]1[C@@H]2[C@H](CN1C(=O)[C@@H](NC(=O)NC1(CS(=O)(=O)C(C)(C)C)CCCCC1)C1Cc3ccccc3C1)C2(C)C` (stereo partly shown) [Compound 318] yielded a Ki of less than 75 nM.
For `CC(C)CCS(=O)(=O)CC1(NC(=O)N[C@H](C(=O)N2C[C@H](O)C[C@H]2C(=O)NC(CC2CCC2)C(=O)C(N)=O)C2CCCCC2)CCCCC1` (stereo partly shown) [Compound 319], the Ki was less than 75 nM.
In the case of `C#CCCC(NC(=O)[C@@H]1[C@@H]2[C@H](CN1C(=O)[C@@H](NC(=O)NC1(CS(=O)(=O)C(C)(C)C)CCCCC1)C(C)(C)C)C2(C)C)C(=O)C(=O)NCC` (stereo partly shown) [Compound 320], the Ki is reported as less than 75 nM.
With `C#CCCC(NC(=O)[C@@H]1[C@@H]2[C@H](CN1C(=O)[C@@H](NC(=O)NC1(CS(=O)(=O)C(C)(C)C)CCCCC1)C(C)(C)C)C2(C)C)C(=O)C(=O)NCCCC` (stereo partly shown) [Compound 321] the Ki was 75 to 250 nM.
With `C#CCCC(NC(=O)[C@@H]1[C@@H]2[C@H](CN1C(=O)[C@@H](NC(=O)NC1(CS(=O)(=O)C(C)(C)C)CCCCC1)C(C)(C)C)C21CC1)C(=O)C(N)=O` (stereo partly shown) [Compound 322] the Ki was 75 to 250 nM.
`C#CCCC(NC(=O)[C@@H]1[C@@H]2[C@H](CN1C(=O)[C@@H](NC(=O)NC1(CS(=O)(=O)C(C)(C)C)CCCCC1)C(C)(C)C)C21CCCC1)C(=O)C(N)=O` (stereo partly shown) [Compound 323] showed a Ki of less than 75 nM.
`C#CCCC(NC(=O)[C@@H]1[C@@H]2[C@H](CN1C(=O)[C@@H](NC(=O)C1(CS(=O)(=O)C(C)(C)C)CCCCC1)C(C)(C)C)C2(C)C)C(=O)C(=O)NCC=C` (stereo partly shown) [Compound 324] gave a Ki of less than 75 nM.
`C=CCNC(=O)C(=O)C(CC1CC1)NC(=O)[C@@H]1[C@@H]2[C@H](CN1C(=O)[C@@H](NC(=O)NC1(CS(=O)(=O)C3CCCC3)CCCCC1)C(C)(C)C)C2(C)C` (stereo partly shown) [Compound 325] showed a Ki of less than 75 nM.
With `C#CCCC(NC(=O)[C@@H]1[C@@H]2[C@H](CN1C(=O)[C@@H](NC(=O)NC1(CS(=O)(=O)C3CCCC3)CCCCC1)C(C)(C)C)C2(C)C)C(=O)C(=O)NCC=C` (stereo partly shown) [Compound 326] the Ki was less than 75 nM.
With `C=CCNC(=O)C(=O)C(CC1CC1)NC(=O)[C@@H]1[C@@H]2[C@H](CN1C(=O)[C@@H](NC(=O)NC1(CS(=O)(=O)C(C)(C)CC)CCCCC1)C(C)(C)C)C2(C)C` (stereo partly shown) [Compound 327] the Ki was greater than 250 nM.
For `CC(C)C(NC(=O)N[C@H](C(=O)N1C[C@H]2[C@@H]([C@H]1C(=O)NC(CC1CCC1)C(=O)C(N)=O)C2(C)C)C(C)(C)C)C1CCCS1(=O)=O` (stereo partly shown) [Compound 329], the Ki was less than 75 nM.
Work on `CC(C)C(NC(=O)N[C@H](C(=O)N1C[C@H]2[C@@H]([C@H]1C(=O)NC(CC1CCC1)C(=O)C(N)=O)C2(C)C)C(C)(C)C)C1CCCS1(=O)=O` (stereo partly shown) [Compound 330] yielded a Ki greater than 250 nM.
`CC(C)C(NC(=O)N[C@H](C(=O)N1C[C@H]2[C@@H]([C@H]1C(=O)NC(CC1CC1)C(=O)C(N)=O)C2(C)C)C(C)(C)C)C1CCCS1(=O)=O` (stereo partly shown) [Compound 331] was tested, and the Ki was less than 75 nM.
With `CC(C)C(NC(=O)N[C@H](C(=O)N1C[C@H]2[C@@H]([C@H]1C(=O)NC(CC1CC1)C(=O)C(N)=O)C2(C)C)C(C)(C)C)C1CCCS1(=O)=O` (stereo partly shown) [Compound 332] the Ki was greater than 250 nM.
With `C=CCNC(=O)C(=O)C(CCC)NC(=O)[C@@H]1[C@@H]2[C@H](CN1C(=O)[C@@H](NC(=O)NC(C(C)C)C1CCCS1(=O)=O)C(C)(C)C)C2(C)C` (stereo partly shown) [Compound 333] the Ki was greater than 250 nM.
`C=CCNC(=O)C(=O)C(CCC)NC(=O)[C@@H]1[C@@H]2[C@H](CN1C(=O)[C@@H](NC(=O)NC(C(C)C)C1CCCS1(=O)=O)C(C)(C)C)C2(C)C` (stereo partly shown) [Compound 334] gave a Ki of less than 75 nM.
For `CC(C)(C)[C@H](NC(=O)NC1(C2CCCS2(=O)=O)CCCCC1)C(=O)N1C[C@H]2[C@@H]([C@H]1C(=O)NC(CC1CCC1)C(=O)C(N)=O)C2(C)C` (stereo partly shown) [Compound 335], the Ki was less than 75 nM.
In the case of `CC1(C)[C@@H]2[C@@H](C(=O)NC(CC3CC3)C(=O)C(N)=O)N(C(=O)[C@@H](NC(=O)NC3(C4CCCS4(=O)=O)CCCCC3)C3CCCCC3)C[C@@H]21` (stereo partly shown) [Compound 342], the Ki is reported as less than 75 nM.
`C=CCNC(=O)C(=O)C(CC1CC1)NC(=O)[C@@H]1[C@@H]2[C@H](CN1C(=O)[C@@H](NC(=O)NC1(C3CCCS3(=O)=O)CCCCC1)C1CCCCC1)C2(C)C` (stereo partly shown) [Compound 343] was tested, and the Ki was less than 75 nM.
Work on `CC(C)C[C@@](C)(CS(=O)(=O)C(C)(C)C)NC(=O)N[C@H](C(=O)N1C[C@H]2[C@@H]([C@H]1C(=O)NC(CC1CCC1)C(=O)C(N)=O)C2(C)C)C(C)(C)C` (stereo partly shown) [Compound 347] yielded a Ki of 75 to 250 nM.
`C=CCNC(=O)C(=O)C(CC1CC1)NC(=O)[C@@H]1[C@@H]2[C@H](CN1C(=O)[C@@H](NC1(CS(=O)(=O)C(C)(C)C)CCC(F)(F)CC1)C(C)(C)C)C2(C)C` (stereo partly shown) [Compound 349] was tested, and the Ki was less than 75 nM.
With `CC(C)(C)[C@H](NC1(CS(=O)(=O)C(C)(C)C)CCC(F)(F)CC1)C(=O)N1C[C@H]2[C@@H]([C@H]1C(=O)NC(CC1CC1)C(=O)C(N)=O)C2(C)C` (stereo partly shown) [Compound 350] the Ki was less than 75 nM.
With `C#CCCC(NC(=O)[C@@H]1[C@@H]2[C@H](CN1C(=O)[C@@H](NC1(CS(=O)(=O)C(C)(C)C)CCC(F)(F)CC1)C(C)(C)C)C2(C)C)C(=O)C(=O)NCC=C` (stereo partly shown) [Compound 351] the Ki was less than 75 nM.

Same assay, conditions: Table 3A; class symbols; read-out: Ki* Range
`CC(C)(C)[C@H](NC(=O)N[C@H]1CCCC[C@H]1S(=O)(=O)C(C)(C)C)C(=O)N1C[C@H]2[C@@H]([C@H]1C(=O)NC(CC1CCC1)C(=O)C(N)=O)C2(C)C` (stereo partly shown) [Compound 397] showed a Ki of 75 to 250 nM.
Compound `C=CCNC(=O)C(=O)C(CC1CC1)NC(=O)[C@@H]1[C@@H]2[C@H](CN1C(=O)[C@@H](NC(=O)N[C@H]1CCCC[C@H]1S(=O)(=O)C(C)(C)C)C(C)(C)C)C2(C)C` (stereo partly shown) [Compound 398] has a Ki greater than 250 nM.
For `C#CCCC(NC(=O)[C@@H]1[C@@H]2[C@H](CN1C(=O)[C@@H](NC(=O)N[C@H]1CCCC[C@H]1S(=O)(=O)C(C)(C)C)C(C)(C)C)C2(C)C)C(=O)C(=O)NCC=C` (stereo partly shown) [Compound 399], the Ki was 75 to 250 nM.
For `CC(C)C[C@](C)(CS(=O)(=O)C(C)(C)C)NC(=O)N[C@H](C(=O)N1C[C@H]2[C@@H]([C@H]1C(=O)NC(CC1CCC1)C(=O)C(N)=O)C2(C)C)C1(C)CCCCC1` (stereo partly shown) [Compound 400], the Ki was less than 75 nM.
Work on `C=CCNC(=O)C(=O)C(CC1CC1)NC(=O)[C@@H]1[C@@H]2[C@H](CN1C(=O)[C@@H](NC(=O)N[C@](C)(CC(C)C)CS(=O)(=O)C(C)(C)C)C1(C)CCCCC1)C2(C)C` (stereo partly shown) [Compound 401] yielded a Ki of less than 75 nM.
In the case of `C#CCCC(NC(=O)[C@@H]1[C@@H]2[C@H](CN1C(=O)[C@@H](NC(=O)N[C@](C)(CC(C)C)CS(=O)(=O)C(C)(C)C)C1(C)CCCCC1)C2(C)C)C(=O)C(=O)NCC=C` (stereo partly shown) [Compound 402], the Ki is reported as less than 75 nM.
`C=CCNC(=O)C(=O)C(CCCC)NC(=O)[C@@H]1[C@@H]2[C@H](CN1C(=O)[C@@H](NC(=O)N[C@](C)(CC(C)C)CS(=O)(=O)C(C)(C)C)C1(C)CCCCC1)C2(C)C` (stereo partly shown) [Compound 403] was tested, and the Ki was less than 75 nM.
For `C=CCNC(=O)C(=O)C(CCC)NC(=O)[C@@H]1[C@@H]2[C@H](CN1C(=O)[C@@H](NC(=O)N[C@](C)(CC(C)C)CS(=O)(=O)C(C)(C)C)C1(C)CCCCC1)C2(C)C` (stereo partly shown) [Compound 404], the Ki was less than 75 nM.
In the case of `C=CCNC(=O)C(=O)C(CC1CC1)NC(=O)[C@@H]1[C@@H]2[C@H](CN1C(=O)[C@@H](NC(=O)NC1(CS(=O)(=O)C(C)(C)CCC)CCCCC1)C1(C)CCCCC1)C2(C)C` (stereo partly shown) [Compound 405], the Ki is reported as less than 75 nM.
For `C=CCNC(=O)C(=O)C(CC1CC1)NC(=O)[C@@H]1[C@@H]2[C@H](CN1C(=O)[C@@H](NC(=O)NC1(CS(=O)(=O)C(C)(C)CCC)CCCCC1)C(C)(C)C)C2(C)C` (stereo partly shown) [Compound 406], the Ki was less than 75 nM.
Work on `CC1([C@H](NC(=O)NC2(CS(=O)(=O)C(C)(C)C)CCCCC2)C(=O)N2C[C@H]3[C@@H]([C@H]2C(=O)NC(CC2CC2)C(=O)C(=O)NCC2CO2)C3(C)C)CCCCC1` (stereo partly shown) [Compound 407] yielded a Ki of less than 75 nM.
`C=CCNC(=O)C(=O)C(CC1CC1)NC(=O)[C@@H]1[C@@H]2[C@H](CN1C(=O)[C@@H](NC(=O)NC1(CS(=O)(=O)C(C)C)CCCCC1)C1(C)CCCCC1)C2(C)C` (stereo partly shown) [Compound 408] was tested, and the Ki was less than 75 nM.
Compound `C=CCNC(=O)C(=O)C(CC1CC1)NC(=O)[C@@H]1[C@@H]2[C@H](CN1C(=O)[C@@H](NC(=O)NC1(CS(=O)(=O)C(C)C)CCCCC1)C(C)(C)C)C2(C)C` (stereo partly shown) [Compound 409] has a Ki of less than 75 nM.
`CC1([C@H](NC(=O)NC2(CS(=O)(=O)C(C)(C)C)CCCCC2)C(=O)N2C[C@H]3[C@@H]([C@H]2C(=O)NC(CC2CC2)C(=O)C(=O)NCC2CCC2)C3(C)C)CCCCC1` (stereo partly shown) [Compound 410] showed a Ki of less than 75 nM.
`CC1([C@H](NC(=O)NC2(CS(=O)(=O)C(C)(C)C)CCCCC2)C(=O)N2C[C@H]3[C@@H]([C@H]2C(=O)NC(CC2CC2)C(=O)C(=O)NCC2CC2)C3(C)C)CCCCC1` (stereo partly shown) [Compound 411] gave a Ki of less than 75 nM.

Source: patent US8067379B2, “Sulfur compounds as inhibitors of hepatitis C virus NS3 serine protease” (Schering Corporation, priority 2004, dated 2011)
